Compound activity as filed in PubChem BioAssay.
Sampled rows, rich in hits. Any-hit rate of the full collection: about 0.92%.
B2AR arrestin: beta2AR (human) beta-arrestin recruitment activity; beta-arrestin recruitment to beta2AR, cell-based reporter; Potency, µM (doses to about 46.1 µM), for the others: at the top dose activation, actives largely listed as activators; 330,000 compounds, 0.02% hits; AID 492947;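 note: potency is the fitted concentration of half-maximal effect; 0% = DMSO controls and full agonism = EC100 isoproterenol or metaproterenol; nearly all actives have a fitted effect of over 65% in size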
GALK inh: galactokinase (human) inhibition; Purified GALK, Kinase-Glo residual ATP luminescence; Potency, µM (series often up to 57.5 µM), for inactives: at the top dose activity change, negative = inhibition, usual class: inhibitors; 270,000 compounds, 0.007% hits; note: potency is the fitted concentration of half-maximal effect; % is set by controls: 0 for no effect and ±100 for the full control effect
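Compounds were pin-transferred into ATP buffer (35 uM final), then GALK plus galactose (5 nM, 100 uM final) was added. After 1 h at room temperature, Kinase-Glo Plus was added and luminescence read after 10 min.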
Giardia kill: kills Giardia lamblia; Giardia lamblia trophozoite viability; activity change, % at 7.66 µM, hits read low; 340,000 compounds, 0.15% hits; AID 540267; in the data active = activity change below about -80%; inconclusive = between about -30% and that limit;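 note: parasites exposed to compound for two days anaerobically before the ATP read; % is set by controls: 0 for no effect and ±100 for the full control effect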
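Trophozoite viability was measured as ATP-dependent luminescence, read 15-30 min after reagent addition. Before that, parasites at 100 cells/well were exposed to compounds for 48 h, anaerobically, at 37 deg C.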
FBPA coupling cs: counter-screen for Giardia aldolase inhibitors: coupling enzyme system; AID 2472; coupling enzyme system counterscreen, AmpLite Red fluorescence; activity change, negative = inhibition, % at 58.2 µM, hits read low; 290,000 compounds, 0.67% hits; in the data active = activity change below about -30%; note: % is set by controls: 0 for no effect and ±100 for the full control effect
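Counterscreen lacking aldolase: glyceraldehyde-3-phosphate coupling-enzyme reagent preincubated 10 min at RT with compound (at 57.5 uM final), then substrate/coupling system with AmpLite Red added; fluorescence read at 525/598 nm after 20 min RT.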
uPA generation: blocks generation of uPA at the cell surface | cell surface uPA generation assay, qHTS | Potency, µM (top dose mostly 38.3 µM), without a hit: at the top dose activity change, negative = inhibition, usual class: inhibitors | 330,000 compounds, 0.31% hits; active = well fitted inhibition curve with a large enough effect; inconclusive = small, poorly fitted or top-dose-only effect; inactive = no such curve, though single readings can be large or run the other way; tested in mouse RAW 264.7 cells; note: potency is the fitted concentration of half-maximal effect; % is set by controls: 0 for no effect and ±100 for the full control effect; nearly all actives have a fitted effect of over 55% in size
miR-21 reporter: raises the signal of a miR-21 reporter; Potency, µM (doses to about 38.3 µM), inactives show top-dose reporter change, positive = more light; HeLa miR-21 FLuc reporter, luciferase, 48 h; AID 2288; 340,000 tested, under 10 active; active = well fitted rising curve with a large enough effect; inconclusive = small, poorly fitted or top-dose-only effect; inactive = no such curve, though single readings can be large or run the other way;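 further: % of control where 0% means no effect; miR-21 action dims this reporter so a rising signal means less miR-21 action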
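Using DMEM plus 10% FBS, HeLa miR-21-FLuc cells are incubated with test compounds (final up to about 40uM) for 48 hours; firefly luciferase signal is then imaged following reagent-mediated lysis.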
* marks the source's active call; other numbers are inactive results; ? = inconclusive; . = no result; ! = not confirmed by another sample. Unless noted, calls come from the whole dose curve; as a rule, active = well fitted curve in the direction sought with a large enough effect; inconclusive = small, poorly fitted or top-dose-only effect, or another doubt; inactive = no such curve, though single readings can be large; an effect the other way counts as inactive or inconclusive.

mol	FBPA coupling cs	uPA generation	Giardia kill	B2AR arrestin	miR-21 reporter	GALK inh
CCCCn1nnnc1SCC(=O)Nc1sc2c(c1C#N)CCCC2	2.6	-2.8%	-2.2	-0.1%	-4.8%	0.1%
Cc1cc(C)c2nc(N3CCCN(C(=O)c4ccco4)CC3)c(C#N)cc2c1	-38.8*	-0.9%	5.3	-1.3%	-15.7%	2.4%
CCOC(=O)c1c(NC(=O)c2ccc(S(=O)(=O)N(CCOC)CCOC)cc2)sc2c1CC(C)(C)NC2(C)C	.	.	.	.	3.6%	.
COc1ccc(S(=O)(=O)Nc2ccc(O)c(Sc3ncn[nH]3)c2)cc1	-6.4	4.7%	6.2	-0.8%	-8.7%	-2.0%
COc1ccc(S(=O)(=O)Nc2cc(Sc3ncn[nH]3)c(O)c3ccccc23)cc1	-57.8*	.	6.4	-0.3%	?	-0.7%
O=C(Sc1cccc2cccnc12)c1ccc(F)cc1	-3.2	.	.	0.1%	26.5%	10.3%
COc1ccc(S(=O)(=O)Nc2cc(SCC(=O)O)c(O)c3ccccc23)cc1	-47.2*	11.2µM*	-8.5	-0.2%	?	-5.3%
O=S(=O)(Nc1cc(Sc2cccc3cccnc23)c(O)c2ccccc12)c1ccc(F)cc1	-53.5*	-17.3%	-98.1*	-1.9%	?	-0.1%
O=C(O)CSc1cc(NS(=O)(=O)c2ccc(Cl)cc2)c2ccccc2c1O	-52.5*	-5.0%	-19.0	-0.7%	26.8%	-12.1%
CCCCSc1nnc2c(n1)OC(c1ccc(C)s1)Nc1ccccc1-2 (stereo unspecified)	.	.	.	.	-44.7%	.
FC(F)(F)c1cc(NC(=S)Nc2ccc3ccccc3c2)cc(C(F)(F)F)c1	-0.7	.	.	.	.	.
CC1CCN(C(c2ccc(F)cc2)c2sc3nc(-c4ccco4)nn3c2O)CC1 (stereo unspecified)	.	.	.	.	-0.8%	.
COc1cccc([C@@H]2Oc3ccc(OC)cc3C[C@H]2OC(=O)N[C@H]2CCCc3ccccc32)c1	2.5	.	.	.	.	.
COc1ccc(CCNC(=O)CCCCn2c(=O)c3ccccc3n(Cc3cc(C)ccc3C)c2=O)cc1OC	.	.	.	.	-7.0%	.
CCCCN(CCCC)C1=C(C(=O)c2ccccc2)N(C)S(=O)(=O)c2ccccc21	.	.	.	.	20.6%	.
Cc1cc(C)c(S(=O)(=O)Nc2ccc(O)cc2)cc1C	-1.3	-2.2%	2.8	-1.1%	-9.6%	-0.6%
Cc1cc(C)c(S(=O)(=O)Nc2cc(SCC(=O)O)c(O)c3ccccc23)cc1C	-52.8*	-3.2%	20.8	6.9%	24.0%	0.1%
CCCCN(CC)CCNC(=O)Cn1cc2c(n1)-c1c(oc(C(=O)N3CCCC3)c1C)CC2	-31.0*	10.8%	6.2	4.5%	1.9%	11.9%
COC(=O)C1C(=O)c2c([nH]c(C(=O)OCC3CCCO3)c2C)CC1C (stereo unspecified)	-1.3	12.6µM*	-16.6	-0.3%	-34.9%	-1.7%
COCCOC(=O)c1[nH]c2c(c1C)C(=O)C(C(=O)OC)C(C)C2 (stereo unspecified)	-35.7*	?	-15.7	0.2%	-27.5%	1.1%
Fc1ccc(CNc2nc3ccc(Cl)cc3n3nnnc23)cc1	.	.	.	.	-0.7%	.
CCN(c1ccccc1)S(=O)(=O)c1ccc(Cl)c(NC(=O)COC(=O)c2cc(O)c3ccccc3c2O)c1	-30.7*	.	.	0.0%	23.2%	6.4%
COc1ccc2c(c1)OC(=O)CC2c1ccc2c(c1)OCO2 (stereo unspecified)	2.2	.	.	.	.	.
CC(C)C1=CC(=Nc2ccc(S(N)(=O)=O)cc2)C=C(C(C)C)C1=O	-43.1*	-7.7%	0.2	-0.9%	7.6%	-1.8%
NS(=O)(=O)c1ccc(N=C2C(=O)Nc3ccccc32)cc1	-4.4	-1.1%	12.3	-1.2%	0.3%	.

Single records, as listed above. Values in the order: FBPA coupling cs | uPA generation | Giardia kill | B2AR arrestin | miR-21 reporter | GALK inh
Cc1cc(C)c2nc(N3CCCN(C(=O)c4ccco4)CC3)c(C#N)cc2c1 as listed: -38.8* | -0.9% | 5.3 | -1.3% | -15.7% | 2.4%
FC(F)(F)c1cc(NC(=S)Nc2ccc3ccccc3c2)cc(C(F)(F)F)c1 as listed: -0.7 | . | . | . | . | .
O=S(=O)(Nc1cc(Sc2cccc3cccnc23)c(O)c2ccccc12)c1ccc(F)cc1 as listed: -53.5* | -17.3% | -98.1* | -1.9% | ? | -0.1%
COc1ccc(CCNC(=O)CCCCn2c(=O)c3ccccc3n(Cc3cc(C)ccc3C)c2=O)cc1OC as listed: . | . | . | . | -7.0% | .
Fc1ccc(CNc2nc3ccc(Cl)cc3n3nnnc23)cc1 as listed: . | . | . | . | -0.7% | .

More compounds.
mol	FBPA coupling cs	uPA generation	Giardia kill	B2AR arrestin	miR-21 reporter	GALK inh
O=C(O)c1cccc(C(=O)O)n1	-79.5*	.	.	0.1%	-4.6%	-1.0%
O=C(O)c1ccc2cccnc2n1	-39.3*	4.1%	14.1	0.1%	-5.3%	-1.4%
O=C(O)c1cccc(Cl)n1	0.2	4.4%	-6.5	-0.5%	3.8%	0.7%
Cc1cc(C)nc(-n2nc(C)c3c2NC(=O)CC3c2cc(F)ccc2F)n1 (stereo unspecified)	.	.	.	.	-8.5%	.
COc1cccc2cc(C(=O)N(Cc3cccs3)Cc3cccs3)c(=O)oc12	.	.	22.9	.	.	.
CN(C)N1C(N)=C(C#N)C(c2cccs2)C2=C1CC(C)(C)CC2=O (stereo unspecified)	-46.5*	1.4%	-7.4	-0.2%	-0.4%	-0.2%
COc1cc(C2CC(=O)Oc3ccc(O)cc32)cc(OC)c1OC (stereo unspecified)	-3.3	.	.	.	.	.
COc1ccc(C2CC(O)(c3ccccc3)Oc3cc(OC)c(OC)c(OC)c32)cc1 (stereo unspecified)	-38.7*!	?	-9.2	?	18.5%	0.4%
COc1cc2c(c(OC)c1OC)C(c1ccc(O)cc1)CC(=O)O2 (stereo unspecified)	-32.4*	7.2%	-4.6	-0.1%	.	.
Cc1cccc(-c2nc3c4ccccc4n(Cc4cccc(Cl)c4)c(=O)n3n2)c1	.	.	.	.	-1.4%	.
CC(Nc1nc(N2CCNCC2)nc2ccccc12)c1ccccc1 (stereo unspecified)	1.2	-5.0%	-84.0*	-0.2%	16.4%	-5.5%
CN(C)CCCNc1cc(-c2ccccc2)nc2cc(-c3cccc(F)c3)nn12	-1.5	5.01µM*	12.9	-0.4%	?	-4.0%
OCCN1CCN(C(=S)c2ccc(Cl)c(Cl)c2)CC1	-31.5*	0.4%	16.7	-0.1%	-3.7%	0.0%
COc1ccccc1-c1nn(CCC(=O)Nc2ccc(C)cc2)c2nc(C)cc(C)c12	.	.	.	.	1.1%	.
CN(C)c1ccc(N=Cc2ccco2)cc1	-42.1*	.	10.8	8.6%	-34.8%	5.5%
CN(C)c1ccc(C=Nc2ccc(N(C)C)cc2)cc1	-29.1	-6.9%	-0.7	8.1%	-53.4%	-0.2%
COc1cccc(CN=c2c([N+](=O)[O-])nn(-c3ccccc3C)n2O)c1	1.6	0.4%	-108.7*	-0.4%	0.5%	4.0%
Cc1cccc(-n2nc([N+](=O)[O-])c(=NCc3cccnc3)n2O)c1	2.0	-8.0%	-87.5*	0.2%	-13.3%	6.2%
O=[N+]([O-])c1nn(-c2cccc(Cl)c2)n(O)c1=NCc1cccnc1	-1.1	-0.7%	-19.6	-4.1%	-37.6%	.
O=[N+]([O-])c1nn(-c2ccc(Cl)cc2)n(O)c1=NCc1ccncc1	-0.1	12.6µM*	?	0.3%	-29.9%	-2.5%
COc1ccc(-n2nc([N+](=O)[O-])c(=NCCc3ccccc3)n2O)cc1	-2.7	10µM*	?	-0.1%	-45.6%	-0.3%
Cc1ccc(CN=c2c([N+](=O)[O-])nn(-c3ccc(Cl)cc3)n2O)cc1	-4.7	-23.4%	?	-0.3%	-29.2%	7.7%
O=[N+]([O-])c1nn(-c2ccccc2)n(O)c1=NCCc1ccccc1	3.4	-9.6%	?	-0.7%	-42.7%	3.4%
